{
  "source": "patent US10752631B2",
  "about": "“Heterocyclic compounds as FGFR inhibitors” (GUANGZHOU INNOCARE PHARMA TECH CO., LTD., priority 2016, dated 2020)",
  "data": [
    {"system": "RT4 bladder cancer cells", "assay": "cells", "conditions": "Homo sapiens, RT-4, 72 h, read-out: RT4 IC50 (nM)", "units": {"IC50": "nM"}, "values": [
      {"compound": "C=CC(=O)N1CCC(c2nc(C#Cc3cc(OC)cc(OC)c3)c3c(N)nccn23)C1", "note": "(stereo not drawn) [Compound 4, 1-((3,5-Dimethoxyphenyl)ethynyl)-3-(1-acrylpyrrolidin-3-yl)imidazo[1,5-a]pyrazin-8-amine]", "IC50": "100 to 500"},
      {"compound": "C=CC(=O)N1CC(c2nc(C#Cc3cc(OC)cc(OC)c3)c3c(N)nccn23)C1", "note": "[Compound 2, 1-((3,5-Dimethoxyphenyl)ethynyl)-3-(1-acrylazacyclobutan-3-yl)imidazo[1,5-a]pyrazin-8-amine]", "IC50": "100 to 500"},
      {"compound": "C=CC(=O)N1CC[C@H](c2nc(C#Cc3cc(OC)cc(OC)c3)c3c(N)nccn23)C1", "note": "[Compound 1, (S)-1-((3,5-Dimethoxyphenyl)ethynyl)-3-(1-acrylpyrrolidin-3-yl)imidazo[1,5-a]pyrazin-8-amine]", "IC50": "< 100"}
    ]}
  ]
}
